This note sets out measurements from ChEMBL document CHEMBL5528023, “Discovery of a CB2 and 5-HT1A receptor dual agonist for the treatment of depression and anxiety” (Eur J Med Chem, 2024).

Protein sequences, listed by entry. Tags and fused reporters are not part of them.
UniProt P34972, whole entry: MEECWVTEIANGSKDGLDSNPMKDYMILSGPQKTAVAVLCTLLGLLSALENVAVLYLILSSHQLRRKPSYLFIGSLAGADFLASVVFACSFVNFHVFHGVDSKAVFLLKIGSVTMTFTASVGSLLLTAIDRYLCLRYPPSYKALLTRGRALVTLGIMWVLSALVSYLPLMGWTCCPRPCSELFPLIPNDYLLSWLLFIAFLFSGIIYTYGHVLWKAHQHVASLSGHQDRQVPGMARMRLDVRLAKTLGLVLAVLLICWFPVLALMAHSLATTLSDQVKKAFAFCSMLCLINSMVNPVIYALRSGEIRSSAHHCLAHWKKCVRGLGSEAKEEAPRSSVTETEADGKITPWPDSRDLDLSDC

As a reminder, the EC50 is the concentration at which the effect is half-maximal.

Structures are written as SMILES. Bounds are passed on as bounds.

This experiment deals with Cannabinoid receptor 2 (Homo sapiens, UniProt P34972). As to the kind of experiment: Agonist activity at human CB2 receptor expressed in CHO cells assessed as forskolin-stimulated cAMP formation preincubated with compound for 10 mins followed by forskolin induction and measured after 30 mins by HTRF analysis. It counts as functional, cell-based. Background: cAMP levels reflect the balance of adenylyl cyclase and phosphodiesterase activity.

Consider `C=C(C)[C@@H]1CCC(C)=C[C@H]1c1c(O)cc(CCCCC)cc1O` [CANNABIDIOL], for which the EC50 is > 10 nM.
